The source of these data is patent publication US12630785B2, “Liquid fabric care compositions comprising capsules” (The Procter & Gamble Company, priority 2020, dated 2026).

The data set can be described thus: Capsule perfume leakage in liquid fabric enhancer (LFE), headspace SPME GC/MS. Particulars: PRM of Perfume 3 out of Capsule Sample D; LFE Composition 1. It counts as physicochemical. As for the experimental part:
The testing of capsule leakage in liquid compositions (e.g., liquid fabric enhancer/“LFE” compositions and/or heavy-duty liquid/“HDL” detergents) is performed as follows. […] The 1 gram aliquot in the 7 ml vial is then mixed on a stirring plate for 24 h at 500 rpm, thereby ensuring that the capsules are broken by the grinding action of the stir bar against the bottom of the 7 ml vial. Optical microscopy can be used to verify that no more intact capsules remain. In case such capsules are found, the step is to repeated for an additional 24 h, or until all or almost all capsules are broken. Then, the formulation containing broken capsules is introduced into GC vials in a similar manner as for step (a). […] It is to be noted that the capsule sample and the total oil sample are not analyzed on the same day, as there is a need to prepare the total oil sample after the leakage sample has been removed from storage. It is to be noted that the capsule sample and the total oil sample are not analyzed on the same day, as there is a need to prepare the total oil sample after the capsule sample has been removed from storage. […] After equilibrating, the samples are analyzed by GC/MS. […] The perfume composition is analyzed by fast GC/MS in full scan mode. […] At the end of the storage period, samples of each product composition are analyzed for perfume leakage out of the capsule using headspace analysis. […]

Pinyl iso-butyrate alpha: the “Leakage (as %) after 1 week at 35° C.” value is on record as 7%.
